Article PMC6982609 (Nature chemical biology, 2019)

Tested on: TNBC cells
Test: Growth inhibition of TNBC cells by EZH2 inhibitors
Type: cell-based

CCN(c1cc(-c2ccc(CN3CCOCC3)cc2)cc(C(=O)NCc2c(C)cc(C)[nH]c2=O)c1C)C1CCOCC1 [EPZ6438]
growth inhibition and apoptosis induction in TNBC cells: failed to inhibit growth
